Laboratory results: ChEMBL document CHEMBL4311981, “Synthesis, anticancer activity, and molecular modeling of 1,4-naphthoquinones that inhibit MKK7 and Cdc25” (Eur J Med Chem, 2019)
Calls of active or inactive are those of the source. No cut-off for these calls is given here.

Key:
[1] = biological target: T1, M-phase inducer phosphatase 1 (Homo sapiens, UniProt P30304)
T1 sequence (P30304 whole entry): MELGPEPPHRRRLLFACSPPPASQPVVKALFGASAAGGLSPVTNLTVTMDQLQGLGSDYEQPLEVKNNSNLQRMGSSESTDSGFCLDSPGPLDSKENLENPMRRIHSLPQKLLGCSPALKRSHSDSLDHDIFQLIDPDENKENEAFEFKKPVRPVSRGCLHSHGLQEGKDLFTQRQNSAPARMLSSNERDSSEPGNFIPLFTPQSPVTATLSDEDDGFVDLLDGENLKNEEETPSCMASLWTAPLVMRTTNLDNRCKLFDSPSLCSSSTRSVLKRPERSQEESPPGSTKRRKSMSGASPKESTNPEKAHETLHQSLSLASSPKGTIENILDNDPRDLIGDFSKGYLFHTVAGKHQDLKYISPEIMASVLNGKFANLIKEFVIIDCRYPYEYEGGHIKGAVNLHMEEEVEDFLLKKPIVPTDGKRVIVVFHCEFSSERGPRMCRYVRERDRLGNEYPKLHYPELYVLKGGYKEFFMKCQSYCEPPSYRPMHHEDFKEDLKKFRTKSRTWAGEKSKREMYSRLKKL

[2] = biological target: T2, Dual specificity mitogen-activated protein kinase kinase 7 (Homo sapiens, UniProt O14733); assay: biochemical
T2 sequence (O14733 whole entry): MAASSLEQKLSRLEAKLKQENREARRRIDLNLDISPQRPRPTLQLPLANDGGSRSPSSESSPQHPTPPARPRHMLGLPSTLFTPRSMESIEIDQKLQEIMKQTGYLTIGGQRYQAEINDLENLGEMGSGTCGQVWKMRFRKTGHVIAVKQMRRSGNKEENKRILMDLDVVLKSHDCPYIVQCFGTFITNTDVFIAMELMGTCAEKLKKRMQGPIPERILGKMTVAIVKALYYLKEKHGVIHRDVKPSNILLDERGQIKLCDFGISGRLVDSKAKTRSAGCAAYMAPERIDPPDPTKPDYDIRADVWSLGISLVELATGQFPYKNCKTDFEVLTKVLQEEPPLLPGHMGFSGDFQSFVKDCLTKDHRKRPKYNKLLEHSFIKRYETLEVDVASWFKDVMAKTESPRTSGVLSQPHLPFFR

[3] = biological target: T3, Dual specificity mitogen-activated protein kinase kinase 7 (Homo sapiens) (UniProt O14733); assay: Binding affinity to MKK7 (unknown origin) expressed in HEK293 cells assessed as dissociation constant at <30 uM by kinomescan method; assay type: cell-based
T3 sequence (whole entry): T2 sequence (O14733 whole entry)

[4] = biological target: T4, Neutrophil elastase (Homo sapiens) (UniProt P08246); assay: Inhibition of recombinant HNE (unknown origin) at <50 uM using N-methylsuccinyl-Ala-Ala-Pro-Val-7-amino-4-methylcoumarin, as a substrate measured every 30 sec for 10 mins by fluorometric assay
T4 sequence (whole entry): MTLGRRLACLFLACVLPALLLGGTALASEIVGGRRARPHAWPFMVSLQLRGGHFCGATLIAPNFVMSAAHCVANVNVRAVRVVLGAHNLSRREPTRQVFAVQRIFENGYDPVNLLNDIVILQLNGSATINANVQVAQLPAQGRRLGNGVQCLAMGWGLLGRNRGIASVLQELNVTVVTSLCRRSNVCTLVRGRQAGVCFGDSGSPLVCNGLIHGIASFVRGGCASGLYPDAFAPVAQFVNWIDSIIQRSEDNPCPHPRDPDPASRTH

[5] = biological target: T5, M-phase inducer phosphatase 2 (Homo sapiens, UniProt P30305)
T5 sequence (P30305 whole entry): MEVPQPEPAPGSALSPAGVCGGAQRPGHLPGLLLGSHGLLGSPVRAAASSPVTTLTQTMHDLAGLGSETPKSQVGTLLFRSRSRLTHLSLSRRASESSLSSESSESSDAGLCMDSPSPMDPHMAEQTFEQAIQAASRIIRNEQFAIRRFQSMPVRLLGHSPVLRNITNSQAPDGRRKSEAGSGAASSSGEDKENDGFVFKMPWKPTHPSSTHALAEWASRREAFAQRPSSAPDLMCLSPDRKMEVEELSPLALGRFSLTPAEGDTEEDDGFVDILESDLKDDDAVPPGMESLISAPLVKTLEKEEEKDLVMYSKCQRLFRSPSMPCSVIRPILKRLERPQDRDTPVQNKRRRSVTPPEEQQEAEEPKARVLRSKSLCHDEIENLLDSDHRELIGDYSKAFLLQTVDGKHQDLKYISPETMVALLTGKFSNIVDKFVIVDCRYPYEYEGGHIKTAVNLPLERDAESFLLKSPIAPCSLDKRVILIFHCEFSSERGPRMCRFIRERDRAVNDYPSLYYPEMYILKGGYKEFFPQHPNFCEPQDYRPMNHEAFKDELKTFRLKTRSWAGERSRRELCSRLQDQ

| SMILES | IC50 [1] | Kd [2] | Activity [3] | inhibition [4] | IC50 [5] |
| --- | --- | --- | --- | --- | --- |
| CC1=CC(=O)c2c(O)cccc2C1=O [PLUMBAGIN] | 0.7 µM | 14 µM |  |  |  |
| O=C1C(O)=C(CN(CCCl)CCCl)C(=O)c2ccccc21 |  |  | inactive | inactive | 12.7 µM |
